Tested on: narrow selection of bacterial strains
Conditions: tested organisms, eight times MIC

With `COc1c(NC(=O)c2ccc(NC(=O)c3ccc(NC(=O)[C@H](Cc4c[nH]nn4)NC(=O)c4ccc(NC(=O)/C(C)=C/c5ccc(O)cc5)cc4)cc3)c(OC)c2O)ccc(C(=O)O)c1O` [Compound 2, AzaHis-albicidin] as the molecule, how does the “formation of resistance (FoR)” value read?
Its value is 10^−10 to 10^−11.

Reference: paper PMC8580050, “Improvement of the antimicrobial potency, pharmacokinetic and pharmacodynamic properties of albicidin by incorporation of nitrogen atoms” (Chemical Science, 2021)
